We go through one substance from patent publication US12378224B2 (Dong-A Socio Holdings Co., Ltd., priority 2016, dated 2025).

Protein sequences, listed by entry. Tags and fused reporters are not part of them. Residues count along the entry.
UniProt Q12866, 21-999 limits assumed, stated change not applied: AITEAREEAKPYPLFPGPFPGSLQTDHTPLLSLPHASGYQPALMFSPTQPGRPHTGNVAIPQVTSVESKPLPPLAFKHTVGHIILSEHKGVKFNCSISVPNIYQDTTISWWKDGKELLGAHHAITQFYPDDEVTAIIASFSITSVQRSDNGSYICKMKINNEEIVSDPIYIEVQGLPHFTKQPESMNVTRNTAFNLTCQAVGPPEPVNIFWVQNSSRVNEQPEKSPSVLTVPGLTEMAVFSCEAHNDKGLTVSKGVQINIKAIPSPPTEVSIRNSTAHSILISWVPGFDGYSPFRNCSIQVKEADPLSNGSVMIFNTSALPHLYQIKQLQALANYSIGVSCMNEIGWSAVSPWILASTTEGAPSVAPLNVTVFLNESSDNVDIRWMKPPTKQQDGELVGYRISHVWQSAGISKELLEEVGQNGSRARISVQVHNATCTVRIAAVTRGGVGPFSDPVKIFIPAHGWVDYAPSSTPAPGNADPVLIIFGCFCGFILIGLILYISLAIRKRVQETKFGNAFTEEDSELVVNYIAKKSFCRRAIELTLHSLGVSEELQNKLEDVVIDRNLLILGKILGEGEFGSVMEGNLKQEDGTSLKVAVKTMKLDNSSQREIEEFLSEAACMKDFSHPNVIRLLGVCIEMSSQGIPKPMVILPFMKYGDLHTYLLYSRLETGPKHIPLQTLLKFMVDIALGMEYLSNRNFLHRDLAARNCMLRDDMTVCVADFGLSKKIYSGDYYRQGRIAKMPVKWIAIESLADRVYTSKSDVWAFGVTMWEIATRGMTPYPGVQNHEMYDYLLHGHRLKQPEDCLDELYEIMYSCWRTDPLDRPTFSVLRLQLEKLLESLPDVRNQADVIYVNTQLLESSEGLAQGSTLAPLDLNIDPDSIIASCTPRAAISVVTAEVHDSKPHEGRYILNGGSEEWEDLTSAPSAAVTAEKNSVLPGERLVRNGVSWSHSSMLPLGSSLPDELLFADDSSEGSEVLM
UniProt Q12866, 528-999 limits assumed: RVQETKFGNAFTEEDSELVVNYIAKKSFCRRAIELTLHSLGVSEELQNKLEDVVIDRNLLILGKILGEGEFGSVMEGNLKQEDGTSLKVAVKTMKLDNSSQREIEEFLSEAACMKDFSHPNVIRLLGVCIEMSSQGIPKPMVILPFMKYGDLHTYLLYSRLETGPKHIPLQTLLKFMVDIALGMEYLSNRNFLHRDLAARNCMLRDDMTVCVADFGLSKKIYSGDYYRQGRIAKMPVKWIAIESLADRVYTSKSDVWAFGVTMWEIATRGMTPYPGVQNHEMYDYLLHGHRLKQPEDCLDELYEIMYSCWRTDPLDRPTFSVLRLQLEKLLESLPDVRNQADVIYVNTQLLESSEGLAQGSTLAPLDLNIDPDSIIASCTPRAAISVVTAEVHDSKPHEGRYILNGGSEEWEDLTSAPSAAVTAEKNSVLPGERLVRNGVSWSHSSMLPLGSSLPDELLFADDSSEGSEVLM

The target in experiment [1] is CD8-MerTK (Ba/F3-CDM cells) (Homo sapiens, UniProt Q12866). In words: In Cell MER Kinase Assay Using BaF3 Cellular System. Type of experiment: cell-based. The note with it: Ba/F3-CDM proliferation without IL-3, 48 hours, Celltiter-Glo. The source says:
CD8-MerTK is a chimeric fusion protein consisting of the extracellular and transmembrane domains of the human CD8α (amino acids 1 to 209) at its N-terminus and the kinase domain and intracellular parts of MerTK (amino acids 521-994) at its C-terminus. To establish an in cell kinase assay for MerTK kinase, the IL-3 dependent Ba/F3 cells of murine lymphoid origin was transfected with CD8-MerTK. The resulting Ba/F3-CDM line was then validated that Ba/F3-CDM cell proliferation is completely dependent on the activity of MerTK kinase activity when growing in the absence of IL-3. For a routine cellular assay, Ba/F3-CDM cells were seeded at 2,000 cells per well in 384-well cell culture plate containing DMEM/10% FBS culture media and incubated for 24 hours before addition of compounds pre-diluted in culture media. Following compound treatment, cells were further incubated for 48 hours and the proliferation was measured. […] Cell growth and proliferation was measured with Celltiter-Glo™ system (Promega, USA) according to the manufacturer's instruction. The half-maximal growth inhibitory concentration (GI50) value was calculated with Prism6.0 software (GraphPad, USA).

The target of experiment [2] is human MER (528-end) (Homo sapiens (Human), UniProt Q12866). Kind of experiment: HTRF Kinase Activity Biochemical Assay (KinEASE-TK). The note with it: 10 uM ATP. As to the method:
For the SAR (structure-activity relationship) and compound screening, HTRF (Homogeneous Time Resolved Fluorescence) kinase activity assay was employed for all MER, AXL and TYRO3 kinases using Cisbio HTRF® KinEASE™-TK kit (Cisbio, USA). The kit includes biotin-labeled TK substrate, streptavidin-XL665, Eu3+-cryptate-labeled TK antibody and HTRF® Detection buffer. There are two main steps in the kinase assay: kinase reaction and detection of phosphorylated substrate. The reaction was carried out in white low volume 384-well plate (Corning, USA) with 25 nL compound in dimethyl sulfoxide in each well. To measure the compound mediated inhibition of kinase activity, 2.5 uL the recombinant kinases were pre-incubated with test compounds for 30 minutes in the kinase reaction buffer (20 mM HEPES pH7.4, 2 mM MnCl2, 10 mM MgCl2, 100 uM Na3VO4, 0.0075% Triton X 100, 0.005% BSA and 1 mM DTT) prior to the addition of 2.5 uL of 1 uM biotin-labeled TK substrates and 10 uM ATP. […] After 1 h incubation at room temperature, the fluorescence intensity was measured with Envision™ plate reader (PerkinElmer, USA). […] The level of kinase activity was quantified by the HTRF ratio that calculated from the intensity of emission at 665 nm and emission at 620 nm (fluorescence intensity @ 665 nm/fluorescence intensity @ 620 nm×10,000). […]
On the technique in general: TR-FRET usually uses a lanthanide donor and a delayed reading to cut background.

For the substance “2-amino-N-43R)-1-(4′-((methyl((1-methylpiperidin-3-yl)methyl)amino)methyl)-[1,1′-biphenyl]-4-carbonyl)pyrrolidin-3-yl)-5-(1-methyl-1H-pyrazol-4-yl)nicotinamide [Example 548]”, the IC50 in experiment [1] and in experiment [2] was more than 1000 nM in each case.

By IC50 is commonly meant the concentration at which inhibition is half-maximal.
